Experimental data reported in PMC10464304, “Refined read‐out: The hUHRF1 Tandem‐Tudor domain prefers binding to histone H3 tails containing K4me1 in the context of H3K9me2/3” (Protein Science : A Publication of the Protein Society, 2023).

Key:
Assay in all cases: fluorescence polarisation; fluorescence anisotropy titration; 100 nM FITC-labeled peptide in the cuvette, protein added stepwise; 23°C; 100 mM KCl, 20 mM HEPES pH 7.5, 10% v/v glycerol
Conditions in all cases: both partners purified
[1] = biological target: T1, GST-hUHRF1-TTD (126-280) E153D (human, UniProt Q96T88 126-280, E153D)
T1 construct: Tandem Tudor domain (TTD) of human UHRF1, UniProt Q96T88, residues 126-280; also called TTD E153D; source: E. coli, purified (Glutathione Agarose 4B); not shown: GST, N-terminal, kept
T1 sequence (looked up): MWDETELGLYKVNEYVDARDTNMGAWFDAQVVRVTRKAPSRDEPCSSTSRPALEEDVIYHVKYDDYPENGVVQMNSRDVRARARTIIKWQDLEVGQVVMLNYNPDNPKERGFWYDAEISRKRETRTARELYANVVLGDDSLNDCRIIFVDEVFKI

[2] = biological target: T2, GST-hUHRF1-TTD (126-280) F278A (human, UniProt Q96T88 126-280, F278A)
T2 construct: Tandem Tudor domain (TTD) of human UHRF1, UniProt Q96T88, residues 126-280; source: E. coli, purified (Glutathione Agarose 4B); not shown: GST, N-terminal, kept
T2 sequence (looked up): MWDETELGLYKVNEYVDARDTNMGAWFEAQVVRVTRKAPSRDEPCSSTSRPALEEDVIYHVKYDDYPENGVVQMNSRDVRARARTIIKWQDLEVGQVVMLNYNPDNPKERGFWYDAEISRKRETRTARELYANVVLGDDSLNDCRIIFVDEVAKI

[3] = biological target: T3, GST-hUHRF1-TTD (126-280) R207H (human, UniProt Q96T88 126-280, R207H)
T3 construct: Tandem Tudor domain (TTD) of human UHRF1, UniProt Q96T88, residues 126-280; source: E. coli, purified (Glutathione Agarose 4B); not shown: GST, N-terminal, kept
T3 sequence (looked up): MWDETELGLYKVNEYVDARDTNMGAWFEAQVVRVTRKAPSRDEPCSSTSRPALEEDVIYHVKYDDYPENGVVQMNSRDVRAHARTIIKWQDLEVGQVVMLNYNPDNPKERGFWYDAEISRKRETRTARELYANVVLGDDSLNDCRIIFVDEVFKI

[4] = biological target: T4, GST-hUHRF1-TTD (126-280) A208G (human, UniProt Q96T88 126-280, A208G)
T4 construct: Tandem Tudor domain (TTD) of human UHRF1, UniProt Q96T88, residues 126-280; source: E. coli, purified (Glutathione Agarose 4B); not shown: GST, N-terminal, kept
T4 sequence (looked up): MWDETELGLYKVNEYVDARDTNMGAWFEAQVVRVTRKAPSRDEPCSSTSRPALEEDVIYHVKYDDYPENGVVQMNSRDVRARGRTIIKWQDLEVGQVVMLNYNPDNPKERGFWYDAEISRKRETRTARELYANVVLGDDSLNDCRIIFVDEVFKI

[5] = biological target: T5, GST-hUHRF1-TTD (126-280) D142N (human, UniProt Q96T88 126-280, D142N)
T5 construct: Tandem Tudor domain (TTD) of human UHRF1, UniProt Q96T88, residues 126-280; source: E. coli, purified (Glutathione Agarose 4B); not shown: GST, N-terminal, kept
T5 sequence (looked up): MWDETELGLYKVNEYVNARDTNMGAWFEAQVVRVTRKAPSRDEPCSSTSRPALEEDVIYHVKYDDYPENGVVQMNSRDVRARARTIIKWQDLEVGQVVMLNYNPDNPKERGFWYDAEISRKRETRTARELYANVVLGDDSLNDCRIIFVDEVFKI

[6] = biological target: T6, GST-hUHRF1-TTD (126-280) R207E (human, UniProt Q96T88 126-280, R207E)
T6 construct: Tandem Tudor domain (TTD) of human UHRF1, UniProt Q96T88, residues 126-280; also called TTD R207E; source: E. coli, purified (Glutathione Agarose 4B); not shown: GST, N-terminal, kept
T6 sequence (looked up): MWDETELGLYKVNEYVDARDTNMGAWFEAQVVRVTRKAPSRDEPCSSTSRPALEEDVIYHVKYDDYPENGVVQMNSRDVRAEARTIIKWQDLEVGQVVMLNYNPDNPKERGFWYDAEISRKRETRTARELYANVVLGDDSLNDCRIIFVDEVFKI

[7] = biological target: T7, GST-fused Tandem-Tudor domain (TTD) of human UHRF1, residues 126-280, wild type (human, UniProt Q96T88 126-280)
T7 construct: Tandem Tudor domain (TTD) of human UHRF1, UniProt Q96T88, residues 126-280; borders as in Rothbart et al., 2012; also called hUHRF1-TTD; UHRF1-TTD; source: E. coli, purified (Glutathione Agarose 4B); not shown: GST, N-terminal, kept
T7 sequence (looked up): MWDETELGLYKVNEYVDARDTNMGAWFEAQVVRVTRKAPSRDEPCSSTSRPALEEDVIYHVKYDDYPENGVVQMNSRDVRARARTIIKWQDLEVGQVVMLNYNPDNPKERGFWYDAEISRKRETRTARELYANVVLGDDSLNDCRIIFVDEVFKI

[8] = biological target: T8, GST-hUHRF1-TTD (126-280) M224A (human, UniProt Q96T88 126-280, M224A)
T8 construct: Tandem Tudor domain (TTD) of human UHRF1, UniProt Q96T88, residues 126-280; source: E. coli, purified (Glutathione Agarose 4B); not shown: GST, N-terminal, kept
T8 sequence (looked up): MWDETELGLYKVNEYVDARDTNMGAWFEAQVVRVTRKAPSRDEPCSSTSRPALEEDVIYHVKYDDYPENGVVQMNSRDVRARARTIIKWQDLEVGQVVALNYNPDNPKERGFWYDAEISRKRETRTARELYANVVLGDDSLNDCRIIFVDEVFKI

[9] = biological target: T9, GST-hUHRF1-TTD (126-280) D142E (human, UniProt Q96T88 126-280, D142E)
T9 construct: Tandem Tudor domain (TTD) of human UHRF1, UniProt Q96T88, residues 126-280; source: E. coli, purified (Glutathione Agarose 4B); not shown: GST, N-terminal, kept
T9 sequence (looked up): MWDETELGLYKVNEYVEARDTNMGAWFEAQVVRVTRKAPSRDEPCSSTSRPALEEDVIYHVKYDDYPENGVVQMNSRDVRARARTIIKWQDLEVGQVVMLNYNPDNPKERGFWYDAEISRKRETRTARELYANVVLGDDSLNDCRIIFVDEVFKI

[10] = biological target: T10, GST-hUHRF1-TTD (126-280) D142A (human, UniProt Q96T88 126-280, D142A)
T10 construct: Tandem Tudor domain (TTD) of human UHRF1, UniProt Q96T88, residues 126-280; also called TTD D142A mutant; source: E. coli, purified (Glutathione Agarose 4B); not shown: GST, N-terminal, kept
T10 sequence (looked up): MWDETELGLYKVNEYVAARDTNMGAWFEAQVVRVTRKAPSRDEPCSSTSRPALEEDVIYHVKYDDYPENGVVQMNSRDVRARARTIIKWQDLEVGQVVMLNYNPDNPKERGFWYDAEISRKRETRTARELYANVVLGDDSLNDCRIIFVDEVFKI

[11] = biological target: T11, GST-hUHRF1-TTD (126-280) E153Q (human, UniProt Q96T88 126-280, E153Q)
T11 construct: Tandem Tudor domain (TTD) of human UHRF1, UniProt Q96T88, residues 126-280; source: E. coli, purified (Glutathione Agarose 4B); not shown: GST, N-terminal, kept
T11 sequence (looked up): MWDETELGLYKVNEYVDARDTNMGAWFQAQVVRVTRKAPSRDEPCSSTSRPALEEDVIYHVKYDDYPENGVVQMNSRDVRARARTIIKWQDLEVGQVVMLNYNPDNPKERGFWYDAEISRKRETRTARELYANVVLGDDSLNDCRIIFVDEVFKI

Kd [1]: 0.64 µM | Kd [2]: 7.9 µM | Kd [3]: 9.7 µM | Kd [4]: 9.5 µM | Kd [5]: 4.5 µM | Kd [6]: 0.22 µM | Kd [7]: 0.68 µM | Kd [8]: 1.4 µM | Kd [9]: 0.98 µM | Kd [10]: 4.9 µM | Kd [11]: 13 µM
B1: FITC-labeled H3(1-19) peptide with K9me3 (peptide, UniProt P68431 2-20, looked up)
peptide: ARTKQTARKSTGGKAPRKQ
modifications: K9me3 (trimethyl-lysine at 9); FITC-labeled
notes: histone H3 N-terminal tail, residues 1-19; also called H3K9me3; H3 K9me3
